PubChem BioAssay AID651957 (The Scripps Research Institute Molecular Screening Center, 2012)
The list shows a part of the results, in another mix than the full data. Some of these compounds have results that are not shown, active ones among them. Activity calls are given as the source filed them.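 Rule for the calls: active = inhibition above the mean inhibition of all tested compounds plus 3 SD, set per campaign (cut at about 52% in these data); inactive = the rest.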

Protein sequences, listed by entry. Tags and fused reporters are not part of them.
UniProt Q15596, whole entry: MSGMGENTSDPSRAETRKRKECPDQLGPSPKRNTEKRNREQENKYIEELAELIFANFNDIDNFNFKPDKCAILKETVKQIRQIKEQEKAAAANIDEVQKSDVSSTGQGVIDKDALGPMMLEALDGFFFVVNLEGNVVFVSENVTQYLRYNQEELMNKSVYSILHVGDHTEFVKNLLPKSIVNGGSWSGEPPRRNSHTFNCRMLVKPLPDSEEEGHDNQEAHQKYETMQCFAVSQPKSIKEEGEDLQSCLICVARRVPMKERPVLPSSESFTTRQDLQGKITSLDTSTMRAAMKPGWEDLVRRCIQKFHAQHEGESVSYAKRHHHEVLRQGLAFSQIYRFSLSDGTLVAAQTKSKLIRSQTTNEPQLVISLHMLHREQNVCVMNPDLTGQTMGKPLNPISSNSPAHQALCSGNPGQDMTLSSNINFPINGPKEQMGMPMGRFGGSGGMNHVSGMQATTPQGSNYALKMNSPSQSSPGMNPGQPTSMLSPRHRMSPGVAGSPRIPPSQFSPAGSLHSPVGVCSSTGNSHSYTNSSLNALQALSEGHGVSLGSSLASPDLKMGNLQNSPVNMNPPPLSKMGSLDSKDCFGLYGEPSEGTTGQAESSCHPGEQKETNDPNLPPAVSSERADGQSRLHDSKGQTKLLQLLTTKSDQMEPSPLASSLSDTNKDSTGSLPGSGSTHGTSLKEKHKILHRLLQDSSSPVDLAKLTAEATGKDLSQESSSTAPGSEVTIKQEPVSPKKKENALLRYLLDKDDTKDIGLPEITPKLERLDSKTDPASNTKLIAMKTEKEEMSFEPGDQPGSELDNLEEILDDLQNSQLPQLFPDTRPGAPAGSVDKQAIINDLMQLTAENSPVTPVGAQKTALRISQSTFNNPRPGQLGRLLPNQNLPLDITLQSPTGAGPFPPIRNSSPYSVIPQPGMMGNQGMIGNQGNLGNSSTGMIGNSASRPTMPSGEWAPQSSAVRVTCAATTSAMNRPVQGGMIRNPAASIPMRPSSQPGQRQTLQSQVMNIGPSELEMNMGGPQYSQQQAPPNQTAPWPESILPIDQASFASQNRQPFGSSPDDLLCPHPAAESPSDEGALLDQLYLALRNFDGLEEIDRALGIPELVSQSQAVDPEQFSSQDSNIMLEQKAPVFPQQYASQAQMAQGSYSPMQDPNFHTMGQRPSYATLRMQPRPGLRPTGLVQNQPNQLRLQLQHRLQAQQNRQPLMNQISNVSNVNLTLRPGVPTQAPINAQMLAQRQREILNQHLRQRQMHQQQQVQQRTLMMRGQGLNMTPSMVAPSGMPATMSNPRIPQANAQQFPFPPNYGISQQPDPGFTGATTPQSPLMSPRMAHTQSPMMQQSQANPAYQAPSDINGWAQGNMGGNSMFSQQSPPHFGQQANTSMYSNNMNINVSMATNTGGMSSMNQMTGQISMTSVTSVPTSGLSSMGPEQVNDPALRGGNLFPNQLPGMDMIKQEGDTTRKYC

target: Nuclear receptor coactivator 2 (Homo sapiens) (UniProt Q15596); test: decrease of SRC2 fusion reporter luminescence – cell-based, SRC2 inhibitor project, primary screen (AID 651957); conditions: HEK293 GAL4-SRC2 luciferase reporter, at 9 µM, hits give high values;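 note: 0% = DMSO treated cells and 100% = cells given Gossypol at 36 µM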

Question: `CN(C)C1(CNC(=O)c2ccc(Br)cc2)CCCCC1` was tested. Which inhibition did it give?
Answer: inactive: -3.98%

Question: Which inhibition does the source give for `COc1cc(C(=O)NCC2(N(C)C)CCCCC2)c([N+](=O)[O-])cc1OC` here?
Answer: inactive: 17.4%

Question: How did the inhibition turn out when `COc1ccc(Cl)cc1C(=O)NCC1(N(C)C)CCCCC1` was run?
Answer: inactive: 16.8%

Question: With `COc1cccc(C(=O)NCC2(N3CCCCC3)CCCCC2)c1` as the compound, how does the inhibition read?
Answer: inactive: 6.76%

Question: How did the inhibition turn out when `O=C(NCC1(N2CCCCC2)CCCCC1)c1cccc(Cl)c1` was run?
Answer: inactive: -7.16%

Question: Which inhibition does the source give for `O=C(OC1CN2CCC1CC2)C(CO)(c1ccccc1)c1ccccc1` (stereo unspecified) here?
Answer: inactive: -6.41%

Question: With `COc1ccc(Br)c(C(=O)NCC2(N3CCCCC3)CCCCC2)c1` as the compound, how does the inhibition read?
Answer: inactive: 26.3%

Question: `C=C(C)C#CC(O)(C(=O)OC1CCN(C)CC1)c1ccccc1` (stereo unspecified) was tested. Which inhibition did it give?
Answer: inactive: -4.89%

Question: How did the inhibition turn out when `CN(C)c1cccc(C(=O)NCC2(N(C)C)CCCCC2)c1` was run?
Answer: inactive: 7.95%

Question: Which inhibition does the source give for `O=C(OCCN1CCCC1)C(O)(c1ccccc1)c1ccccc1` here?
Answer: inactive: -4.45%

Question: Which inhibition does the source give for `CC(C)Oc1ccc(C(=O)NCC2(N(C)C)CCCCC2)cc1` here?
Answer: inactive: -35.1%

Question: Which inhibition does the source give for `O=C(NCC1(N2CCCCC2)CCCCC1)c1cc([N+](=O)[O-])ccc1Cl` here?
Answer: inactive: 14.8%

Question: For `CN1[C@@H]2CC[C@H]1CC(OC(=O)C(O)(c1ccccc1)c1ccccc1)C2` (stereo partly specified), which inhibition is on record?
Answer: inactive: -17%

Question: With `CC(C)N1C(=O)CC2(CCN(CCOC(=O)C(O)(c3ccccc3)c3ccccc3)CC2)C1=O` as the compound, how does the inhibition read?
Answer: inactive: 10.8%

Question: With `COc1cc(SC)ccc1C(=O)NCC1(N(C)C)CCCCC1` as the compound, how does the inhibition read?
Answer: inactive: -3.4%

Question: `CCN(CC)CC(C)C(C)OC(=O)C(O)(c1ccccc1)c1ccccc1` (stereo unspecified) was tested. Which inhibition did it give?
Answer: inactive: -0.33%

Question: For `Cc1ccc(C(=O)NCC2(N3CCCCC3)CCCCC2)cc1`, which inhibition is on record?
Answer: inactive: -5.31%

Question: Which inhibition does the source give for `CN(C)c1ccc(C(=O)NCC2(N(C)C)CCCCC2)cc1` here?
Answer: inactive: -16.7%

Question: For `CN(C)C1CCCC1OC(=O)C(O)(c1ccccc1)c1ccccc1` (stereo unspecified), which inhibition is on record?
Answer: inactive: -2.55%

Question: With `Cc1ccccc1C(=O)NCC1(N2CCCCC2)CCCCC1` as the compound, how does the inhibition read?
Answer: inactive: 14.8%

Question: For `O=C(NCC1(N2CCCCC2)CCCCC1)c1cc(F)c(F)cc1Cl`, which inhibition is on record?
Answer: inactive: -52%

Question: With `C=CCN1CCN(CCOC(=O)C(O)(c2ccccc2)c2ccccc2)CC1` as the compound, how does the inhibition read?
Answer: inactive: -5.8%

Question: How did the inhibition turn out when `O=C(NCC1(N2CCCCC2)CCCCC1)c1cccc(Br)c1` was run?
Answer: inactive: -20.5%

Question: How did the inhibition turn out when `CCN1CCCC(OC(=O)C2(O)c3ccccc3C=Cc3ccccc32)C1` (stereo unspecified) was run?
Answer: inactive: 27.4%

Question: `Cc1cc(C(=O)NCC2(N3CCCCC3)CCCCC2)ccc1[N+](=O)[O-]` was tested. Which inhibition did it give?
Answer: inactive: -14.9%

Question: `COc1ccc(C(=O)NCC2(N(C)C)CCCCC2)cc1` was tested. Which inhibition did it give?
Answer: inactive: 5.92%
